PubChem BioAssay (NCI)
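Tested at 5 concentrations; 48 h exposure; 96-well plates; endpoints linearly interpolated, else capped at highest concentration. The concentration for 50% growth inhibition is given as GI50. TGI is the concentration that stops growth completely.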

System: MDA-MB-468 breast
Assay: inhibition of tumour cell growth, NCI panel, 48 h

**Q.** Which results are given for `CSc1ccc(Nc2c([N+](=O)[O-])cc([N+](=O)[O-])cc2[N+](=O)[O-])cc1`?
**A.** GI50: 1.57 µM; TGI: 4.74 µM
